The record followed here is ChEMBL document CHEMBL1955771, “VX-322: a novel dual receptor tyrosine kinase inhibitor for the treatment of acute myelogenous leukemia” (J Med Chem, 2012).

SMILES strings stand for the structures.

The species named for this assay is Homo sapiens. As to the kind of experiment: Selectivity ratio of IC50 for human recombinant c-Kit to IC50 for wild type human recombinant FLT3.

`COc1ccc(N2CCOCC2)cc1Nc1nc(N)n(-c2ccccn2)n1`: the Ratio IC50 was determined as 64.
